Data taken from ChEMBL document CHEMBL1150776, “Naturally occurring pentacyclic triterpenes as inhibitors of glycogen phosphorylase: synthesis, structure-activity relationships, and X-ray crystallographic studies” (J Med Chem, 2008).

Biological target: T1, Glycogen phosphorylase, muscle form (Oryctolagus cuniculus, UniProt P00489)
T1 sequence (P00489 whole entry): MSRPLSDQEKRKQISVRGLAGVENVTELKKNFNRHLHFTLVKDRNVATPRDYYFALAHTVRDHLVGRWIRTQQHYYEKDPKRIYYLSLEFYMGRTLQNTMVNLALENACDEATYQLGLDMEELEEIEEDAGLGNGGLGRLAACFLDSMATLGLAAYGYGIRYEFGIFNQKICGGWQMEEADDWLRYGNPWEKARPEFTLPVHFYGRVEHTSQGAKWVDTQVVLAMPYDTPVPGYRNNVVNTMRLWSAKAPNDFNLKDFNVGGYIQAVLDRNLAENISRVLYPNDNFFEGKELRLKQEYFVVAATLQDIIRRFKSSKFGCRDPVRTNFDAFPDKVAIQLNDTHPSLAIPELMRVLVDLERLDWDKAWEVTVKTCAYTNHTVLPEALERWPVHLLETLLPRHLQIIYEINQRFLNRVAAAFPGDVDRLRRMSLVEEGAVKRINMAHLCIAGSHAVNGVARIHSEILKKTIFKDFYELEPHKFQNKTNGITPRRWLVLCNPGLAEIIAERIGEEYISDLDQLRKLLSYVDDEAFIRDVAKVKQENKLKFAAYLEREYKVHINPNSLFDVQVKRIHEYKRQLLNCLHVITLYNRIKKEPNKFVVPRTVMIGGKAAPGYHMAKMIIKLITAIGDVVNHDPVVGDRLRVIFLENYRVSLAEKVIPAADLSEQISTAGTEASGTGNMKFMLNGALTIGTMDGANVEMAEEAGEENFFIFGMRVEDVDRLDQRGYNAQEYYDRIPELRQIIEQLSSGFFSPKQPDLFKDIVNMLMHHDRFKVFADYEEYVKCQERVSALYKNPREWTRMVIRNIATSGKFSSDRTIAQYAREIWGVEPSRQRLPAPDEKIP
Assay: Inhibition of rabbit muscle glycogen phosphorylase A assessed as phosphate release from glucose-1-phosphate

IC50: 21 µM
SMILES: CC1(C)CC[C@]2(C(=O)O)CC[C@]3(C)C(=CC[C@@H]4[C@@]5(C)CC[C@@H](O)C(C)(C)[C@@H]5CC[C@]43C)[C@@H]2C1
